Reference: US9187486B2 (AMGEN INC., priority 2011, dated 2015)

Amino acid sequences for entries named in this document (tags omitted). A change or cut given only in a name is not applied to a line headed by its entry.
UniProt Q9P1W9: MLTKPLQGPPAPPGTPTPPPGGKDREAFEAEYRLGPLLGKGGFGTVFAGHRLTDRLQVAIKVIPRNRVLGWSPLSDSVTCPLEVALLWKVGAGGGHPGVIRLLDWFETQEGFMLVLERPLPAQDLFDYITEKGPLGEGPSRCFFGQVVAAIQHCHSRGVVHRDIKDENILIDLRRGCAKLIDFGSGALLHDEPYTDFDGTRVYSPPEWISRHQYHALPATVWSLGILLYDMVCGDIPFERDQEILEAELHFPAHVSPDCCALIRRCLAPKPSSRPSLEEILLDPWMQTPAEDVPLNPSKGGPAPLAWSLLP
UniProt P11309, whole entry: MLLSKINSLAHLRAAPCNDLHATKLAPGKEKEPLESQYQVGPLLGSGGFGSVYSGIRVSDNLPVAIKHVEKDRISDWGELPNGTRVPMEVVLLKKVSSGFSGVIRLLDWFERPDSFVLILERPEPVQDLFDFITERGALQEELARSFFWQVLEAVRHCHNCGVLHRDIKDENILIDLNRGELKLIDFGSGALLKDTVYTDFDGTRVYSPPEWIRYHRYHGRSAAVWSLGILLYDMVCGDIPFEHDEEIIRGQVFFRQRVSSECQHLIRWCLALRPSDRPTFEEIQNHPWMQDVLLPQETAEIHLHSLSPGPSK

Experiments:
Pim-2 = Pim-2 (Homo sapiens (Human), UniProt Q9P1W9); assay: Pim enzyme assay (HTRF, phosphorylation of biotinylated-BAD (S112) peptide), Pim-2; assay type: biochemical; conditions: read-out: Pim-2 IC50 IP
Description: (§1) Full-length human cDNAs encoding Pim-1 (MGC ID 3913552) or Pim-2 (IMAGE ID 5092935) were purchased from Invitrogen, Carlsbad, Calif. These cDNAs were used as templates in PCR reactions to produce full-length DNA clones of the PIMs. Oligonucleotide PCR primers for Pim-1 were 5′-[…]-3′ and 5′-[…]-3′. Oligonucleotide PCR primers for Pim-2 were 5′-[…]-3′ and 5′-[…]-3′. PCR products were digested with BclI and EcoRI for Pim-1 and BamHI and EcoRI for Pim-2 and ligated into a modified baculovirus transfer vector (pFastBac 1) cleaved with BamHI and EcoRI. For bacterial expression, the same cleaved PCR products encoding Pim-1 or Pim-2 were ligated into a modified E. coli expression vector pET28(a) cleaved with BamHI and EcoRI. Amino-terminal hexahistidine tags followed by a thrombin cleavage site were previously added to the vectors using standard methods of molecular biology. Recombinant baculoviruses expressing Pim-1 or Pim-2 were made using standard methods (Fastbac manual, Invitrogen, Carlsbad, Calif.). Infection of Sf9 cells was done at an m.o.i. of greater than 5 for 24-48 h. Cells were harvested by centrifugation and frozen at −80 C. For E. coli expression, cells carrying pET28-His6-Th-Pim-1 or pET28-His6-Th-Pim-2 were picked from a single colony and grown o/n in LB media. The o/n culture was used to inoculate a 2 liter flask with 500 mL media. This was grown o/n and used to inoculate 15-20 liters of Terrific Broth in a New Brunswick Scientific fermentor. The E. coli were grown at 37° C. to and OD600>1.6. The temperature was dropped to 18° C. and o/n expression was induced with 0.5 mM IPTG. Cells were harvested by centrifugation and frozen at −80° C.
(§2) The frozen cell pellets were thawed by stirring in chilled lysis buffer (0.05 M HEPES, pH 8.0, 0.25 M NaCl, 0.01 M 2-mercaptoethanol, 10% (w/v) glycerol, 0.5% (v/v) protease inhibitor cocktail (Sigma P-8340) at a ratio of 1 L/200 g cells until homogeneous. The thawed suspension was applied to a microfluidizer at 10,000 PSI to disrupt the cells and the whole lysates were clarified by centrifugation at 50,000×g for 90 min, 4° C. Imidazole was added to the clarified lysate to a final concentration of 2.5 mM and the lysate was mixed with 10 mL of Talon resin (Clontech) and the slurry rocked gently overnight at 4° C. The slurry was centrifuged at 1,000×g for 5 min, the supernatant decanted, and the resin suspended in 40 mL of lysis wash buffer (lysis buffer at 0.75 M NaCl). This step was repeated 3× and the resin was transferred to a 2.5 cm glass column. Ten column volumes of wash buffer (0.05 M HEPES, pH 8.0, 0.1 M NaCl, 0.01 M 2-mercaptoethanol, 10% (w/v) glycerol) were applied to the resin followed by 10 column volumes of elution buffer (0.05 M HEPES, pH 8.0, 0.25 M NaCl, 0.01 M 2-mercaptoethanol, 10% (w/v) glycerol, 0.1 M imidazole). Fractions were analyzed by SDS-PAGE and those containing the protein of interest were pooled and concentrated. The concentrated protein was applied to an Amersham Superdex 75 (XK 26/60) column equilibrated in 0.025 M Tris-HCl, pH 7.5, 0.1 M NaCl, 0.01 M 2-mercaptoethanol, 10% (w/v) glycerol. […] Fractions containing the monomeric protein of interest were pooled, concentrated to ˜2 mg/mL, and stored at −80° C.
(§3) The phosphorylation of biotinylated-BAD (S112) peptide by full length recombinant Pim-1, Pim-2, or Pim-3 protein was detected with streptavidin:Allophycocyanin (APC) conjugate and a europium (Eu) labeled antibody directed against phosphorylated-BAD (S112). Excitation of Eu by a high energy laser light (337 nm) leads to a transfer of energy to the APC molecule, and results in an emission at 665 nm. The fluorescence is directly proportional to the amount of phosphorylated BAD peptide present in the reaction.

Pim-1 = Pim-1 (Homo sapiens (Human), UniProt P11309); assay: Pim enzyme assay (HTRF, phosphorylation of biotinylated-BAD (S112) peptide), Pim-1; assay type: biochemical; conditions: read-out: Pim-1 IC50 IP
Description: as §1, §2, §3

[1] = full length recombinant Pim-2, biotinylated-BAD (S112) peptide, HTRF, 96-well
[2] = full length recombinant Pim-1, biotinylated-BAD (S112) peptide, HTRF, 96-well

SMILES	IC50 (Pim-2; [1]) [nM]	IC50 (Pim-1; [2]) [nM]	IC50 (Pim-2) [nM]	IC50 (Pim-1) [nM]
N[C@@H]1C=C(c2ccncc2Nc2ncc3ccc(-c4c(F)cccc4F)nn23)CCC1 (single isomer, unassigned) [Example 84, N-(4-(3-aminocyclohex-1-en-1-yl)pyridin-3-yl)-2-(2,6-difluorophenyl)imidazo[1,5-b]pyridazin-7-amine tris(2,2,2-trifluoroacetate)]	189	–	–	–
C[C@H]1CC[C@H](N)CN1c1ccncc1Nc1ncc2ccc(-c3c(F)cccc3F)nn12 (single isomer, unassigned) [Example 85, N-(4-(5-amino-2-methylpiperidin-1-yl)pyridin-3-yl)-2-(2,6-difluorophenyl)imidazo[1,5-b]pyridazin-7-amine tris(2,2,2-trifluoroacetate)]	–	–	38.7	2.7
C[C@H]1CC[C@H](N)CN1c1ccncc1Nc1ncc2ccc(-c3c(F)cccc3F)nn12 (single isomer, unassigned) [Example 86, N-(4-(5-amino-2-methylpiperidin-1-yl)pyridin-3-yl)-2-(2,6-difluorophenyl)imidazo[1,5-b]pyridazin-7-amine tris(2,2,2-trifluoroacetate)]	1	< 0.1	–	–
C[C@H]1CC[C@H](N)CN1c1ccncc1Nc1ncc2ccc(-c3c(F)cccc3F)nn12 (single isomer, unassigned) [Example 87, N-(4-(5-amino-2-methylpiperidin-1-yl)pyridin-3-yl)-2-(2,6-difluorophenyl)imidazo[1,5-b]pyridazin-7-amine tris(2,2,2-trifluoroacetate)]	0.3	< 0.1	–	–
C[C@H]1CC[C@H](N)CN1c1ccncc1Nc1ncc2ccc(-c3c(F)cccc3F)nn12 (single isomer, unassigned) [Example 88, N-(4-(5-amino-2-methylpiperidin-1-yl)pyridin-3-yl)-2-(2,6-difluorophenyl)imidazo[1,5-b]pyridazin-7-amine tris(2,2,2-trifluoroacetate)]	29	6.6	–	–
C[C@H]1CC[C@H](N)CN1c1ccncc1Nc1ncc2ccc(-c3ncccc3F)nn12 (single isomer, unassigned) [Example 97, N-(4-((trans)-5-amino-2-methylpiperidin-1-yl)pyridin-3-yl)-2-(3-fluoropyridin-2-yl)imidazo[1,5-b]pyridazin-7-amine tris(2,2,2-trifluoroacetate)]	2.8	0.2	–	–
C[C@H]1C[C@H](N)CN(c2ccncc2Nc2ncc3ccc(-c4c(F)cccc4F)nn23)C1 [Example 33, N-(4-((3S,5S)-3-amino-5-methylpiperidin-1-yl)pyridin-3-yl)-2-(2,6-difluorophenyl) imidazo[1,5-b]pyridazin-7-amine]	0.8	0.4	–	–
N[C@H]1CCCN(c2ccncc2Nc2ncc3ccc(-c4ncccc4F)nn23)C1 [Example 40, N-(4-((3S)-3-amino-1-piperidinyl)-3-pyridinyl)-2-(3-fluoro-2-pyridinyl)imidazo [1,5-b]pyridazin-7-amine]	–	–	–	0.2
C[C@H]1CN(c2ccncc2Nc2ncc3ccc(-c4c(F)cccc4F)nn23)[C@@H](C)CN1 [Example 49, 2-(2,6-difluorophenyl)-N-(4-((2S,5S)-2,5-dimethylpiperazin-1-yl)pyridin-3-yl)imidazo[1,5-b]pyridazin-7-amine]	113	18.2	–	–

Further compounds by falling IC50 (Pim-2; [1]), results first:

IC50 (Pim-2; [1]) [nM]	IC50 (Pim-1; [2]) [nM]	SMILES	IC50 (Pim-2) [nM]	IC50 (Pim-1) [nM]
136	15.3	C[C@H]1CC[C@H](N)CN1c1ccncc1Nc1ncc2ccc(-c3ncccc3F)nn12 (single isomer, unassigned) [Example 96, N-(4-((trans)-5-amino-2-methylpiperidin-1-yl)pyridin-3-yl)-2-(3-fluoropyridin-2-yl)imidazo[1,5-b]pyridazin-7-amine tris(2,2,2-trifluoroacetate)]	–	–
105	3.3	C[C@@H]1CN(c2ccncc2Nc2ncc3ccc(-c4c(F)cccc4F)nn23)[C@@H](C)CN1 (single isomer, unassigned) [Example 52, 2-(2,6-difluorophenyl)-N-(4-((trans)-2,5-dimethyl-1-piperazinyl)-3-pyridinyl)imidazo[1,5-b]pyridazin-7-amine]	–	–
102	19.8	C[C@H]1CC[C@@H](N)CN1c1ccncc1Nc1ncc2ccc(-c3ncccc3F)nn12 (single isomer, unassigned) [Example 94, N-(4-((cis)-5-amino-2-methylpiperidin-1-yl)pyridin-3-yl)-2-(3-fluoropyridin-2-yl)imidazo[1,5-b]pyridazin-7-amine tris(2,2,2-trifluoroacetate)]	–	–
48.8	–	N[C@@H]1CN(c2ccncc2Nc2ncc3ccc(-c4c(F)cccc4F)nn23)CC[C@H]1F (single isomer, unassigned) [Example 44, N-(4-(trans-3-amino-4-fluoropiperidin-1-yl)pyridin-3-yl)-2-(2,6-difluorophenyl)imidazo[1,5-b]pyridazin-7-amine]	–	–
7.8	2.1	C[C@@H]1C[C@H](N)CN(c2ccncc2Nc2ncc3ccc(-c4c(F)cccc4F)nn23)C1 (single isomer, unassigned) [Example 39, N-(4-((cis)-3-amino-5-methylpiperidin-1-yl)pyridin-3-yl)-2-(2,6-difluorophenyl)imidazo[1,5-b]pyridazin-7-amine]	–	–
6.3	–	N[C@@H]1C=C(c2ccncc2Nc2ncc3ccc(-c4c(F)cccc4F)nn23)CCC1 (single isomer, unassigned) [Example 83, N-(4-(3-aminocyclohex-1-en-1-yl)pyridin-3-yl)-2-(2,6-difluorophenyl)imidazo[1,5-b]pyridazin-7-amine tris(2,2,2-trifluoroacetate)]	–	–
1.1	0.2	N[C@@H]1CN(c2ccncc2Nc2ncc3ccc(-c4c(F)cccc4F)nn23)CC[C@H]1F (racemic) [Example 43, rac-N-(4-(trans-3-amino-4-fluoropiperidin-1-yl)pyridin-3-yl)-2-(2,6-difluorophenyl)imidazo[1,5-b]pyridazin-7-amine]	–	–
1.1	–	N[C@@H]1CN(c2ccncc2Nc2ncc3ccc(-c4c(F)cccc4F)nn23)CC[C@H]1F (single isomer, unassigned) [Example 45, N-(4-(trans-3-amino-4-fluoropiperidin-1-yl)pyridin-3-yl)-2-(2,6-difluorophenyl)imidazo[1,5-b]pyridazin-7-amine]	–	–

Where two headings read alike, the source gives them in different places.
